Experiments:
[1] = tested on: patients with hemiplegia attributed to cerebrovascular disease (stroke); set-up: species or system human; details: in vivo
Source text: Test subjects were 33 patients with hemiplegia attributed to cerebrovascular disease (stroke) at Brunnstrom stage III or lower in either the upper limb or a finger on admission. Patients already developing RSD (shoulder-hand syndrome) on admission and patients with pain in the shoulder joint or swollen paralyzed limbs were excluded from the test. To 12 of these 33 test subjects, 20 units of elcatonin (Elcitonin Injection 20S; Asahi-Kasei Pharma; hereinafter, referred to as EL) were intramuscularly administered once a week immediately after admission (EL administration group). On the other hand, 21 test subjects were classified into a rehabilitation alone group (control group) and compared with the EL administration group. Physical therapy and therapeutic exercise, occupational therapy, and the management of the paralyzed limbs were performed thoroughly in all the cases. […] EL administration was initiated 11 to 59 days after an attack of stroke (25.8 days on average) and continued until 5 months after the attack of stroke. The same observation period was applied to the control group. […]
Activities of daily living (ADL) were evaluated on the basis of the Barthel Index (BI) and the range of motion (ROM) of shoulder joint. […]

[2] = in vivo

Intramuscular dose relative to drip infusion in vein for equal maximum serum concentration [2]: approximately 1.5 times
Substance: 1-butyric acid-7-(L-2-aminobutyric acid)-26-L-aspartic acid-27-L-valine-29-L-alanine-calcitonin [elcatonin]
Side effects during the test period [1]: no significant or serious side effect was observed
